These results are taken from paper PMC5919655, “Practical spectrophotometric assay for the dapE-encoded N-succinyl-L,L-diaminopimelic acid desuccinylase, a potential antibiotic target” (PLoS ONE, 2018).

Sequences of proteins named here, by UniProt entry; tags and fusion partners are left off. A change or cut given only in a name is not applied to a line headed by its entry.
UniProt P44514: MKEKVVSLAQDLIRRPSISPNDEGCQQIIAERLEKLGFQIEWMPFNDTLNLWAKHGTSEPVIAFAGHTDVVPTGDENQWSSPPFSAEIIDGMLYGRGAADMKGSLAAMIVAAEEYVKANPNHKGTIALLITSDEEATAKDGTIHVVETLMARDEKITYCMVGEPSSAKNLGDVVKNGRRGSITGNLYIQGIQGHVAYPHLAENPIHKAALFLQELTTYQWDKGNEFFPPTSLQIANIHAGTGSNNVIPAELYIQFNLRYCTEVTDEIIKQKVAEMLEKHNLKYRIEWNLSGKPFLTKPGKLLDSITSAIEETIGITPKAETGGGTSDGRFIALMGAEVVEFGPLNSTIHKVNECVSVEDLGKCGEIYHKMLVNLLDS

In this assay the target is T1, succinyl-diaminopimelate desuccinylase (HiDapE) (Haemophilus influenzae, UniProt P44514).
T1 construct: gene dapE; recombinant HiDapE, His6-tag cleaved with TEV protease
Put plainly: ninhydrin-based assay of purified HiDapE with N6-methyl-L,L-SDAP substrate, […] nm. The format is biochemical.

A word on the IC50: it is the concentration needed to halve the response being measured. A high value points to weaker potency. On to `OB(O)c1ccccc1` [phenylboronic acid], for which the IC50 turned out to be 316 µM.
